Chains of the proteins cited; added tags and fusions are not shown. Residues count along the entry.
UniProt P02768, 25-609: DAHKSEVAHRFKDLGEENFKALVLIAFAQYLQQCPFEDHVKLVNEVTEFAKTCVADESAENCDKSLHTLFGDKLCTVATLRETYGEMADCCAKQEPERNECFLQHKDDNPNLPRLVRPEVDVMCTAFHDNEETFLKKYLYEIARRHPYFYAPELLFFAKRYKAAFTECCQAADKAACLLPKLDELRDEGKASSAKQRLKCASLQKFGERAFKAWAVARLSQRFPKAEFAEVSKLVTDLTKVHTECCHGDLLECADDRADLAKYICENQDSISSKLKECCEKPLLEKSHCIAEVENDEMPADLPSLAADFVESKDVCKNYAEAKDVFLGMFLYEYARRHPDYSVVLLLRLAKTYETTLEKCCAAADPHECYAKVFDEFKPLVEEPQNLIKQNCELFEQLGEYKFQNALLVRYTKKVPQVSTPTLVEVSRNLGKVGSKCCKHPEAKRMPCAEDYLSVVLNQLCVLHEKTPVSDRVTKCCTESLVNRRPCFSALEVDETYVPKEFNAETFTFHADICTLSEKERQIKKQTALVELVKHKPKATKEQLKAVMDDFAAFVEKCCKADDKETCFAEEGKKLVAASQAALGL

In publication PMC8920097, “Prediction of hERG inhibition of drug discovery compounds using biomimetic HPLC measurements” (ADMET & DMPK, 2021):

Legend:
[1] = Phospholipid binding at pH 7.4 on IAM PC.DD2 HPLC column
[2] = CHI lipophilicity by gradient reversed-phase HPLC (Gemini NX-C-18); settings: pH 7.4
[3] = Charge character of the drugs at pH 7.4
[4] = target: human serum albumin (HSA) (Homo sapiens, UniProt P02768); settings: pH 7.4, Chiralpak HSA
[5] = pH 7.4, derived from CHI IAM by equation 1

Substance | CHI IAM ([1]; pH 7.4) | log k IAM [1, 5] | CHI log D7.4 [2] | Charge [3] | log k IAM ([1]; pH 7.4) | log k HSA [4]
Alfuzosin | 34.60 | 1.98 | 0.79 | Weak Base | – | –
Desloratadine | 54.56 | 2.93 | 1.32 | – | – | –
Imipramine | 39.44 | – | 2.05 | Basic | 2.23 | –
Nicotine | 13.79 | – | 0.12 | Weak Base | 1.05 | -0.03
Prazosin | 26.32 | 1.63 | 1.09 | Weak Base | – | –
Propafenone | – | – | – | – | 2.54 | –
